# Assay results from paper PMC8500670, “A selective WDR5 degrader inhibits acute myeloid leukemia in patient-derived mouse models” (Science translational medicine, 2021).
# Target: WDR5 (Homo sapiens) (UniProt P61964)
# Test: ITC
substance,measurement,value
VCB (VHL-Elongin C-Elongin B) (from UniProt P40337),Kd,52 nM and 520 nM

# “And” between values parts separate entries of the source, which are not always exact repeats. Equal values may be shown once.
